Data reported in patent publication US20050004000A1, “Oral absorbed drugs” (priority 2001, published 2005).
Like-named read-outs stand apart in the source and are kept apart here.

Experiments:
[1] = mice
Experimental: (§1) The experiment was carried out with a single mice or rat per compound (per metabolic cage) and it was repeated 7 times with rats and twice with mice using the protocol below. The fluorescent feature of doxorubicin enables the observation of its presence in the urine following different modes of administration.
The experiments were repeated with mice.

[2] = rats
Experimental: as §1
Urine was collected several times after administration and the fluorescence emission was measured by a fluorometer. The urine collected from the untreated groups was used as a blank.
Urine was collected at 1.25, 2.5, 4 and 6 hours after administration and fluorescence intensity was measured in a fluorometer (SPECTRAmax and GEMINI of Molecular Devices Sunnyvale Fluorometer, CA, USA). Since doxorubicin is a fluorescent material, when it absorbs light energy at a wavelength of 488 nm (excitation), it undergoes an electronic state change and instantaneously emits light at 595 nm (emission). The Relative Fluorescence Units (RFU) shown in FIG. 1 indicate the peaks of light emitted at 595 nm resulting from the absorption of Dox at 488 nm.

Fms-doxorubicin
absorption following I.P. administration (urine fluorescence) ([1]; I.P.): absorbed | oral absorption (urine fluorescence) ([1]; orally): absorbed orally | oral absorption (Relative Fluorescence Units in urine, FIG. 1) ([2]; 15 mg/Kg Fms-Dox oral, urine at 1.25, 2.5, 4 and 6 hours, average of 5 experiments): orally absorbed | absorption following I.P. administration (urine fluorescence) ([2]; Dox 10 μg/g, Fms-Dox 15 μg/g I.P.): absorbed | oral absorption (urine fluorescence) ([2]; Dox 10 μg/g, Fms-Dox 15 μg/g orally): absorbed orally
